Laboratory results: PubChem BioAssay AID504558 (Broad Institute, 2011)
The entries are a selection whose mix differs from that of the whole data set. Some tests of the compounds listed are not included; inactive here does not mean inactive elsewhere. Calls of active or inactive are those of the source. Cut-off read from the data, not from the text of the source: active = inhibition above about 41%; inconclusive = no clear call, values can overlap the other calls; inactive = below that.

Assay: blockers of LMP1-induced NF-kB reporter signal – cell-based, luminescence, single point, primary screen (AID 504558);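 note: 0% = neutral control wells and 100% = reference inhibitor control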
Details: LMP1-induced NF-kappaB luciferase reporter cells, at 12.5 µM, hits give high values
In the case of `COc1cc(C(=O)NCC2(N(C)C)CCCCC2)c([N+](=O)[O-])cc1OC`, the inhibition is reported as inactive: 6.88%.
For `CN(C)C1(CNC(=O)c2ccc(Br)cc2)CCCCC1`, the inhibition was inactive: 8.86%.
For `O=C(NCC1(N2CCCCC2)CCCCC1)c1cccc(Cl)c1`, the inhibition was inactive: -26.2%.
For `COc1cccc(C(=O)NCC2(N3CCCCC3)CCCCC2)c1`, the inhibition was inactive: -14.1%.
In the case of `COc1ccc(Cl)cc1C(=O)NCC1(N(C)C)CCCCC1`, the inhibition is reported as inactive: 5.38%.
In the case of `O=C(OC1CN2CCC1CC2)C(CO)(c1ccccc1)c1ccccc1` (stereo unspecified), the inhibition is reported as inactive: -6.23%.
In the case of `CN(C)c1cccc(C(=O)NCC2(N(C)C)CCCCC2)c1`, the inhibition is reported as inactive: -9.83%.
With `CC(C)Oc1ccc(C(=O)NCC2(N(C)C)CCCCC2)cc1` the inhibition was inactive: -7.53%.
In the case of `O=C(OCCN1CCCC1)C(O)(c1ccccc1)c1ccccc1`, the inhibition is reported as inactive: -1.44%.
With `COc1ccc(Br)c(C(=O)NCC2(N3CCCCC3)CCCCC2)c1` the inhibition was inactive: 0.338%.
In the case of `C=C(C)C#CC(O)(C(=O)OC1CCN(C)CC1)c1ccccc1` (stereo unspecified), the inhibition is reported as inactive: 5.97%.
In the case of `CN1[C@@H]2CC[C@H]1CC(OC(=O)C(O)(c1ccccc1)c1ccccc1)C2` (stereo partly specified), the inhibition is reported as inactive: -0.534%.
In the case of `O=C(NCC1(N2CCCCC2)CCCCC1)c1cc([N+](=O)[O-])ccc1Cl`, the inhibition is reported as inactive: -5.81%.
With `Cc1ccc(C(=O)NCC2(N3CCCCC3)CCCCC2)cc1` the inhibition was inactive: -20%.
For `CC(C)N1C(=O)CC2(CCN(CCOC(=O)C(O)(c3ccccc3)c3ccccc3)CC2)C1=O`, the inhibition was inactive: 5.98%.
With `CCN(CC)CC(C)C(C)OC(=O)C(O)(c1ccccc1)c1ccccc1` (stereo unspecified) the inhibition was inactive: 2.24%.
With `COc1cc(SC)ccc1C(=O)NCC1(N(C)C)CCCCC1` the inhibition was inactive: -3.59%.
With `Cc1ccccc1C(=O)NCC1(N2CCCCC2)CCCCC1` the inhibition was inactive: 2.93%.
For `CN(C)C1CCCC1OC(=O)C(O)(c1ccccc1)c1ccccc1` (stereo unspecified), the inhibition was inactive: 4.49%.
For `CN(C)c1ccc(C(=O)NCC2(N(C)C)CCCCC2)cc1`, the inhibition was inactive: -1.5%.
For `Cc1cc(C(=O)NCC2(N3CCCCC3)CCCCC2)ccc1[N+](=O)[O-]`, the inhibition was inactive: -41.9%.
In the case of `CCN1CCCC(OC(=O)C2(O)c3ccccc3C=Cc3ccccc32)C1` (stereo unspecified), the inhibition is reported as inactive: -4.69%.
With `O=C(NCC1(N2CCCCC2)CCCCC1)c1cccc(Br)c1` the inhibition was inactive: -40.7%.
With `COc1ccc(C(=O)NCC2(N(C)C)CCCCC2)cc1` the inhibition was inactive: 6.23%.
For `C=CCN1CCN(CCOC(=O)C(O)(c2ccccc2)c2ccccc2)CC1`, the inhibition was inactive: -1.53%.
In the case of `O=C(NCC1(N2CCCCC2)CCCCC1)c1cc(F)c(F)cc1Cl`, the inhibition is reported as inactive: -2.37%.
